Literature values as cited in US20040167185A1, “Methods of treating conditions associated with an Edg-3 receptor” (priority 2003, published 2004).

Biological target: Adrenergic α2

In the case of `COC(=O)[C@H]1[C@H]2C[C@H]3c4[nH]c5ccccc5c4CCN3C[C@H]2CC[C@@H]1O` [^3H Rauwolscine, Rauwolscine], the Kd is listed as 7.8 nM.
